Measurements published in ChEMBL document CHEMBL4359863, “Structure-guided development of purine amide, hydroxamate, and amidoxime for the inhibition of non-small cell lung cancer” (Eur J Med Chem, 2019).

Chains of the proteins cited; added tags and fusions are not shown. Lines headed by an entry give the natural chain unless they say otherwise; changes in a name come on top.
UniProt Q14289, whole entry, looked up: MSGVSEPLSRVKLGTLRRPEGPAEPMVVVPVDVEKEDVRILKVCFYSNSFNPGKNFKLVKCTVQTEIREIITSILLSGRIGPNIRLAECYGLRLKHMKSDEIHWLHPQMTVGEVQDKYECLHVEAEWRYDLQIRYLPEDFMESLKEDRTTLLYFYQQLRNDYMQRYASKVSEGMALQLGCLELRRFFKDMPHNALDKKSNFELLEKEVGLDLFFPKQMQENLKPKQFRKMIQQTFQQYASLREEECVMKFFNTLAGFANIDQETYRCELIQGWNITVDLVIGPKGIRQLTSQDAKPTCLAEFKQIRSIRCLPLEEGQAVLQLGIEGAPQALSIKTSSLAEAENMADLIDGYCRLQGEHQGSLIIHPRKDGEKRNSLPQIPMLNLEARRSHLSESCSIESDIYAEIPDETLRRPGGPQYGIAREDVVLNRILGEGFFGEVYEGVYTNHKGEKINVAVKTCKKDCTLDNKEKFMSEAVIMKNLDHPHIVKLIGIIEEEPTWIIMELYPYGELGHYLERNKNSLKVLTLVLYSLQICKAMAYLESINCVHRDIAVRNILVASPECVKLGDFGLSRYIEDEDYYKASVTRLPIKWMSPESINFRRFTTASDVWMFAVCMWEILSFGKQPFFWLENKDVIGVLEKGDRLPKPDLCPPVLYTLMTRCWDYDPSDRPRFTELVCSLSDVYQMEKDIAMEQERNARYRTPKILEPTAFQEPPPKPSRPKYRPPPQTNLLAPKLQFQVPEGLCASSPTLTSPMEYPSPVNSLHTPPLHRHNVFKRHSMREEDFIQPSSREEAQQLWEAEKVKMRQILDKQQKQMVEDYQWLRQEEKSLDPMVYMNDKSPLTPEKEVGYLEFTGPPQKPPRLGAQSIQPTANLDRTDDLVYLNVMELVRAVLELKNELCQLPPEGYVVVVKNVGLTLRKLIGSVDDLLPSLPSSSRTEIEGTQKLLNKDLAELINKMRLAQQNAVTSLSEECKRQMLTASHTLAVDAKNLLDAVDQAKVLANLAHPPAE
UniProt P29474: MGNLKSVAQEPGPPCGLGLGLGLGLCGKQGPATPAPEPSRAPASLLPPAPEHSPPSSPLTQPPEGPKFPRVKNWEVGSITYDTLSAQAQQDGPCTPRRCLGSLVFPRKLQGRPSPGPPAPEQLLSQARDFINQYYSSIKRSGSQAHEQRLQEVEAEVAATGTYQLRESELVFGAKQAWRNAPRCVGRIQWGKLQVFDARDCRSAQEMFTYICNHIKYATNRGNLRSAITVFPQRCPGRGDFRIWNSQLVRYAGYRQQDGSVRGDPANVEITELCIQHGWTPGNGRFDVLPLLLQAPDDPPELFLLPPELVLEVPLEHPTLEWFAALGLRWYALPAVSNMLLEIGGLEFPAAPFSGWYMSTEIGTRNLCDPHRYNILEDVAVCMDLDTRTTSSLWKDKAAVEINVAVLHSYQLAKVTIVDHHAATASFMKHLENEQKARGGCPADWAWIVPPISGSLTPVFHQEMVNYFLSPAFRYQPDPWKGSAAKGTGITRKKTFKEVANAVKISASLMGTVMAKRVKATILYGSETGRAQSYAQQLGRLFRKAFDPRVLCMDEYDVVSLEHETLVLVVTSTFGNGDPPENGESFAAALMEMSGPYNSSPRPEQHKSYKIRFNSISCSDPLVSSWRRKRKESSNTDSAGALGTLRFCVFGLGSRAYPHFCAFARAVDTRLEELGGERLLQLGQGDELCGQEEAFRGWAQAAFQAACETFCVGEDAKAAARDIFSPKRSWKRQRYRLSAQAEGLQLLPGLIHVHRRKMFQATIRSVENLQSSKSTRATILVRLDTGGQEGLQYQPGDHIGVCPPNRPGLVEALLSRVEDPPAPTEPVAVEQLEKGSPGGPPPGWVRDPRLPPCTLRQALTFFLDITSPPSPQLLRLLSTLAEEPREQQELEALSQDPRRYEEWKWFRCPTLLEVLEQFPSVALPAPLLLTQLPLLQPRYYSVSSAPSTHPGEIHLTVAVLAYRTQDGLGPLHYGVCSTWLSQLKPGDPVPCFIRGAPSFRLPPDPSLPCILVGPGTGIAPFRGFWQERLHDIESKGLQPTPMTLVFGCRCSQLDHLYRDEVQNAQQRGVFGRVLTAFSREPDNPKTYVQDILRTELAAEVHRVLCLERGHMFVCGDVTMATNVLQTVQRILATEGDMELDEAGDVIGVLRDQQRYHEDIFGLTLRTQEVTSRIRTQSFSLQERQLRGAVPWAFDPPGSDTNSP
UniProt P40763, whole entry: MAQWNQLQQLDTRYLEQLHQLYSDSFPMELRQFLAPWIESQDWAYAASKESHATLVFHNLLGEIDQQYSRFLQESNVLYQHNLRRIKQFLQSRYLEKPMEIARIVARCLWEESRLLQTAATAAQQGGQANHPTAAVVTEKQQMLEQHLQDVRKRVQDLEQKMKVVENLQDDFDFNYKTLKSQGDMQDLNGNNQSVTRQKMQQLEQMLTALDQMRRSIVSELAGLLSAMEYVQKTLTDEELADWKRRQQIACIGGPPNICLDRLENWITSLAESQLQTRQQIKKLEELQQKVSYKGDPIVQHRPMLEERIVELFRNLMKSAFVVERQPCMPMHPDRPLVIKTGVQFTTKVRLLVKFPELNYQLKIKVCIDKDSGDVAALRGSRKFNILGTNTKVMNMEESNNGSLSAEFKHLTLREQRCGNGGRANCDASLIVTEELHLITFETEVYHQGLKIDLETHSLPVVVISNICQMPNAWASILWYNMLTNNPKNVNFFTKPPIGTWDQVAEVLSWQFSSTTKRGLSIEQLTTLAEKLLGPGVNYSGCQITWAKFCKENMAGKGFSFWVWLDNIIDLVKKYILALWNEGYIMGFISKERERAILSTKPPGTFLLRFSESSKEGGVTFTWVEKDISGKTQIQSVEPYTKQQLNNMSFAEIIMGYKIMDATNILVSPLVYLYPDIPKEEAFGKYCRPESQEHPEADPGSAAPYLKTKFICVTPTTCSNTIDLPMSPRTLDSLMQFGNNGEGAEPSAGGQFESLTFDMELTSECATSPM
UniProt P31751: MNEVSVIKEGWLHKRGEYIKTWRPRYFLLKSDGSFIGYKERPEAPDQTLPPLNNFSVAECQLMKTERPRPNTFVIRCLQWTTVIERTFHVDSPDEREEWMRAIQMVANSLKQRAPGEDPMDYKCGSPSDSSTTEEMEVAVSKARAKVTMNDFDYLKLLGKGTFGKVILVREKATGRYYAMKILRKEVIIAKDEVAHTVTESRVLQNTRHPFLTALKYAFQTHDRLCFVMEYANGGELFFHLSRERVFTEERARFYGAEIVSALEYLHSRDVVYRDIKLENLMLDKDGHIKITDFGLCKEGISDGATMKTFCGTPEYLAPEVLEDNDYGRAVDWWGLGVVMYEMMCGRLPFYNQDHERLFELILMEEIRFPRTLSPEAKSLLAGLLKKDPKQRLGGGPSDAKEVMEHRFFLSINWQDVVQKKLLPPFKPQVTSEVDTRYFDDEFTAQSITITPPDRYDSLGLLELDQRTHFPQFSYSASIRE
UniProt Q9Y243: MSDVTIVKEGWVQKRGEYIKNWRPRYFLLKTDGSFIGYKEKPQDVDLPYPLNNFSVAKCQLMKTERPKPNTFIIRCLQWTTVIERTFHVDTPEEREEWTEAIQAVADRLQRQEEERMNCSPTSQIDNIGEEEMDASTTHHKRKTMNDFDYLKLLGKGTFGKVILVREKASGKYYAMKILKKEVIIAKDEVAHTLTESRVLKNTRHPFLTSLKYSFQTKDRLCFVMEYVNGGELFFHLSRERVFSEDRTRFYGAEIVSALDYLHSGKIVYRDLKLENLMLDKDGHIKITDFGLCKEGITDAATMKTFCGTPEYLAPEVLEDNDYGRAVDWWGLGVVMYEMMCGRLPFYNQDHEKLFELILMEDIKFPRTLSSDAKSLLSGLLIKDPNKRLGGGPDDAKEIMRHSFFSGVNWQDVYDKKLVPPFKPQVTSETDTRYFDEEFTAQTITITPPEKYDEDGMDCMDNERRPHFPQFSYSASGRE
UniProt P31749: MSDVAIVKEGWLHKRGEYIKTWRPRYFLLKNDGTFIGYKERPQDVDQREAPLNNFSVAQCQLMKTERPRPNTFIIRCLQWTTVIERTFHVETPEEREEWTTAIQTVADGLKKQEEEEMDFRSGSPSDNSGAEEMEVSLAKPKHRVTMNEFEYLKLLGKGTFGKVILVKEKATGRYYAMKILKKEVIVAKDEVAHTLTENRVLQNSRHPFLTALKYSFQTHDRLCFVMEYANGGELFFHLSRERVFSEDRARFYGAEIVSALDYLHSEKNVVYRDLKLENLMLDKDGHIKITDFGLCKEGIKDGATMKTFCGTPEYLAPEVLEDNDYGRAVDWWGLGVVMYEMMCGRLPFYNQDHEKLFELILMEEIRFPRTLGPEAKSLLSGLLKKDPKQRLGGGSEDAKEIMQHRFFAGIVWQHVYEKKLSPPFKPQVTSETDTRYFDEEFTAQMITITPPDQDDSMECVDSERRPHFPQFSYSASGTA
UniProt P23443: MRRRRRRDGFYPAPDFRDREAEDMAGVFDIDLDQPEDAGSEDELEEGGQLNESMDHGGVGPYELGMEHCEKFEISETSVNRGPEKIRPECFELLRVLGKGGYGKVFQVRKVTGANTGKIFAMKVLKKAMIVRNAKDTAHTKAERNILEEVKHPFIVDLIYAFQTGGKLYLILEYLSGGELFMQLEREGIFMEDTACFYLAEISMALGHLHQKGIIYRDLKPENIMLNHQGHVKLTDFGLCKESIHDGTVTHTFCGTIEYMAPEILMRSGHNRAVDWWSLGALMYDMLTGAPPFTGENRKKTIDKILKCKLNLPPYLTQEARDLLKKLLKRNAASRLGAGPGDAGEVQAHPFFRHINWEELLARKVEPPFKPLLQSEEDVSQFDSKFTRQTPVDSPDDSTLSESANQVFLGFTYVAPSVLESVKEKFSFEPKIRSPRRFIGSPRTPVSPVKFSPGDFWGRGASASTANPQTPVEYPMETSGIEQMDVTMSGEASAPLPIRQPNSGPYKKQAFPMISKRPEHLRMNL
UniProt P46527, whole entry: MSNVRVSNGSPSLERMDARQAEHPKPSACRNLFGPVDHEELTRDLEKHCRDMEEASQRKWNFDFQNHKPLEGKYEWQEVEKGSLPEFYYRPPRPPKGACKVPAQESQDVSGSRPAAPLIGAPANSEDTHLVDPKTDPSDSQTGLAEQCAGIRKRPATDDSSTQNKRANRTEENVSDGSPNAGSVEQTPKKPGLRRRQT
UniProt P51692: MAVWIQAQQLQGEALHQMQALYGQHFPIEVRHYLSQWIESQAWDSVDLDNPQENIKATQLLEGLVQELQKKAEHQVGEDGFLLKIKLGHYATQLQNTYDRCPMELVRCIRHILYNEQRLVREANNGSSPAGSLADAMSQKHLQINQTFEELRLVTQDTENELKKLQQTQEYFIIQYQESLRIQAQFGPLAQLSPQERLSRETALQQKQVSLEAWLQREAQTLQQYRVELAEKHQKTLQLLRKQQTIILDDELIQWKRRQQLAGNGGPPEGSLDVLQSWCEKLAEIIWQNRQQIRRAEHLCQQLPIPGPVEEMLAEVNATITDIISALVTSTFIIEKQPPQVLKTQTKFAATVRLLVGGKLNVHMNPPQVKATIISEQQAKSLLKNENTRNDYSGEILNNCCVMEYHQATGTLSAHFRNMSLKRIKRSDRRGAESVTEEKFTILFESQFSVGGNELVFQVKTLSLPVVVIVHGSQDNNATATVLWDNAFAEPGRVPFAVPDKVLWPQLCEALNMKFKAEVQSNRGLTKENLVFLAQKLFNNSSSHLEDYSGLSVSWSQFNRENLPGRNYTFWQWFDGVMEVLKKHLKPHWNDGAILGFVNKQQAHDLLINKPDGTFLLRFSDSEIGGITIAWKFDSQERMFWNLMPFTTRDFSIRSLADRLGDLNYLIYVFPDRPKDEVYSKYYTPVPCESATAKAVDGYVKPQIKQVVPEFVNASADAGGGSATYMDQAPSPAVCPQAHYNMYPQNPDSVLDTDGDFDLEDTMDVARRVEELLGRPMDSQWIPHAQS
UniProt P07948: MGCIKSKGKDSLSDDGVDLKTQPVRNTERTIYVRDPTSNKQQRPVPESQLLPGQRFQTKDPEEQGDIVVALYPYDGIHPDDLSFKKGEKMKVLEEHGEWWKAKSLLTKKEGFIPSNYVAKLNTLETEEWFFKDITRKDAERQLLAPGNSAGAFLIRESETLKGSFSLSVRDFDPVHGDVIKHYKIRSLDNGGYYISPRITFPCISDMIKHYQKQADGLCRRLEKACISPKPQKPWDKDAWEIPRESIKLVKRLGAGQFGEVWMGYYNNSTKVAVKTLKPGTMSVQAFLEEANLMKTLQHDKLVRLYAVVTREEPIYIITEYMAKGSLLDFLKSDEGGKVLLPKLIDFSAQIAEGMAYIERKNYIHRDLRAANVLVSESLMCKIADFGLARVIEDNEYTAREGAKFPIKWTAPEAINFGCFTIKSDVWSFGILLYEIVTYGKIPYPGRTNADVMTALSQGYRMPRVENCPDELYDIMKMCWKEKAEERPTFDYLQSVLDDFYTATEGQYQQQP

Experiments:
Assay type in all cases: cell-based
[1] = target: Protein-tyrosine kinase 2-beta (Homo sapiens) (UniProt Q14289); assay: Effect on PYK2 at Y402 phosphorylation level in human NCI-H1975 incubated for 12 hrs by human phosphokinase proteome profiler array relative to control
[2] = target: Tyrosine-protein kinase Fgr (Homo sapiens) (UniProt P09769); assay: Effect on FGR at Y412 phosphorylation level in human NCI-H1975 incubated for 12 hrs by human phosphokinase proteome profiler array relative to control
[3] = target: Nitric oxide synthase 3 (Homo sapiens) (UniProt P29474); assay: Effect on eNOS at S1177 phosphorylation level in human NCI-H1975 incubated for 12 hrs by human phosphokinase proteome profiler array relative to control
[4] = target: Mitogen-activated protein kinase 14 (Homo sapiens) (UniProt Q16539); assay: Effect on p38alpha at T180/Y182 phosphorylation level in human NCI-H1975 incubated for 12 hrs by human phosphokinase proteome profiler array relative to control
[5] = target: Signal transducer and activator of transcription 3 (Homo sapiens) (UniProt P40763); assay: Effect on STAT3 at Y705 phosphorylation level in human NCI-H1975 incubated for 12 hrs by human phosphokinase proteome profiler array relative to control
[6] = target: Serine/threonine-protein kinase AKT (Homo sapiens) (UniProt P31751+Q9Y243+P31749); assay: Effect on Akt1/2/3 at T308 phosphorylation level in human NCI-H1975 incubated for 12 hrs by human phosphokinase proteome profiler array relative to control
[7] = target: T1, Signal transducer and activator of transcription 5A (Homo sapiens) (UniProt P42229); assay: Effect on STAT5a at Y694 phosphorylation level in human NCI-H1975 incubated for 12 hrs by human phosphokinase proteome profiler array relative to control
T1 sequence (whole entry): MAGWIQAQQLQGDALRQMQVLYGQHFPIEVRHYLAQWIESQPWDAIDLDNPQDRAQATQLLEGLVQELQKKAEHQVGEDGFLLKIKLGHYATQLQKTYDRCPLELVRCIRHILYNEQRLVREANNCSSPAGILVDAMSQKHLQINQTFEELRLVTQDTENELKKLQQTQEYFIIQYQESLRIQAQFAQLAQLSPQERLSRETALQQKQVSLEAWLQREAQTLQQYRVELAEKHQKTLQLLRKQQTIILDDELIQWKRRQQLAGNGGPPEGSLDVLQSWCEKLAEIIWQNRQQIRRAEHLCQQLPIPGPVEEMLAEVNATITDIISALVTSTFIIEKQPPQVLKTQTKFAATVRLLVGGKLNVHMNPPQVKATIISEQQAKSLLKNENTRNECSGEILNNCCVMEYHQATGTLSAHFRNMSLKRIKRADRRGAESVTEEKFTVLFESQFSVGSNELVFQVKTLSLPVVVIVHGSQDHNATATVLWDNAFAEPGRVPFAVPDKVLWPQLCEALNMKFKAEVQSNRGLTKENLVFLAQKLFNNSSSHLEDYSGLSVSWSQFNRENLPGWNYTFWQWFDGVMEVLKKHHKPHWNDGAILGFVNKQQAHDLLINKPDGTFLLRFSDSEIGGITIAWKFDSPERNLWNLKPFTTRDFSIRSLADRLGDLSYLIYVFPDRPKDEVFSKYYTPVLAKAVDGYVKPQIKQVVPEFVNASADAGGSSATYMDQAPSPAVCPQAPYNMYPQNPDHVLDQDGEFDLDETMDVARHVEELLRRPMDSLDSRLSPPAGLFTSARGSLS

[8] = target: Ribosomal protein S6 kinase beta-1 (Homo sapiens) (UniProt P23443); assay: Effect on p70S6 Kinase at T421/S424 phosphorylation level in human NCI-H1975 incubated for 12 hrs by human phosphokinase proteome profiler array relative to beta-catenin
[9] = target: Cyclin-dependent kinase inhibitor 1B (Homo sapiens) (UniProt P46527); assay: Effect on p27 at T198 phosphorylation level in human NCI-H1975 incubated for 12 hrs by human phosphokinase proteome profiler array relative to beta-catenin
[10] = target: Tyrosine-protein kinase Yes (Homo sapiens) (UniProt P07947); assay: Effect on YES at Y426 phosphorylation level in human NCI-H1975 incubated for 12 hrs by human phosphokinase proteome profiler array relative to beta-catenin
[11] = target: STAT5A/STAT5B (Homo sapiens) (UniProt P42229+P51692); assay: Effect on STAT5a/b at Y694/Y699 phosphorylation level in human NCI-H1975 incubated for 12 hrs by human phosphokinase proteome profiler array relative to beta-catenin
[12] = target: Tyrosine-protein kinase Lyn (Homo sapiens) (UniProt P07948); assay: Effect on LYN at Y397 phosphorylation level in human NCI-H1975 incubated for 12 hrs by human phosphokinase proteome profiler array relative to beta-catenin
[13] = target: T2, Signal transducer and activator of transcription 6 (Homo sapiens) (UniProt P42226); assay: Effect on STAT6 at Y641 phosphorylation level in human NCI-H1975 incubated for 12 hrs by human phosphokinase proteome profiler array relative to beta-catenin
T2 sequence (whole entry): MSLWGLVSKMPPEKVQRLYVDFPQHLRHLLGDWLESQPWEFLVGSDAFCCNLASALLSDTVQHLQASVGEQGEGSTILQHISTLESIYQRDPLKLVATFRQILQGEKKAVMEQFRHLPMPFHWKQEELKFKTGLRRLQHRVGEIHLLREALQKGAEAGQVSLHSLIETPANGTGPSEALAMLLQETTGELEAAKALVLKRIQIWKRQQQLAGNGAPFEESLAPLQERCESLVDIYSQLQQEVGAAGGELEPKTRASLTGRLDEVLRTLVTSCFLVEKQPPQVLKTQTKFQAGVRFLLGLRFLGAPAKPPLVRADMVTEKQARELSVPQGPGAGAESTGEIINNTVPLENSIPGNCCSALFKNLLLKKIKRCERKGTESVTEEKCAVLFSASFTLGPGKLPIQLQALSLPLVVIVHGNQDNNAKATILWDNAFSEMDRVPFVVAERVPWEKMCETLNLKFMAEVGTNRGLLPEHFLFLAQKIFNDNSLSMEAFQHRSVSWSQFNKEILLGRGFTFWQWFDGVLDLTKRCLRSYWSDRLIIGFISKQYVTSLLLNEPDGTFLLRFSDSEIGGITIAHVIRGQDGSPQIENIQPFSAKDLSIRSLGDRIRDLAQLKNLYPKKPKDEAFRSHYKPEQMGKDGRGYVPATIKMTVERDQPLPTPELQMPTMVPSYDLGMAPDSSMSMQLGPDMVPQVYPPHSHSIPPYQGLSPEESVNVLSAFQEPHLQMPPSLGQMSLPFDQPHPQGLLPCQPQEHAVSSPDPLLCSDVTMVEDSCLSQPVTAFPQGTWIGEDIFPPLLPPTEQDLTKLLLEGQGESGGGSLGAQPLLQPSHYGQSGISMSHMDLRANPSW

[14] = target: Ribosomal protein S6 kinase beta-1 (Homo sapiens) (UniProt P23443); assay: Effect on p70S6 Kinase at T389 phosphorylation level in human NCI-H1975 incubated for 12 hrs by human phosphokinase proteome profiler array relative to beta-catenin

SMILES	fold change (FC) [1]	fold change (FC) [2]	fold change (FC) [3]	fold change (FC) [4]	fold change (FC) [5]	fold change (FC) [6]	fold change (FC) [7]	fold change (FC) [8]	fold change (FC) [9]	fold change (FC) [10]	fold change (FC) [11]	fold change (FC) [12]	fold change (FC) [13]	fold change (FC) [14]
CCOc1ccc(-c2nc(/C(N)=N/O)c3[nH]c(=O)n(-c4ccccc4OC)c3n2)cc1	1.43	1.01	1.02	1.03	1.47	1.25	0.78	1.57	1.93	0.83	0.97	0.84	0.99	1.7
CCOc1ccc(-c2nc(C(=O)NO)c3[nH]c(=O)n(-c4ccccc4OC)c3n2)cc1	1.13	0.32	0.74	0.82	1.14	0.87	0.67	1	1.96	0.84	0.93	0.73	1.35	1.04
